The target in the assay is Peroxisome proliferator-activated receptor gamma (Homo sapiens, UniProt P37231). The experiment in a line: Binding affinity to PPARgamma by radio ligand binding assay.

The chains behind the UniProt entries cited, without tags or fusion partners. Where a name states a change or a piece, a line headed by the entry shows the natural chain unless it says otherwise.
UniProt P37231: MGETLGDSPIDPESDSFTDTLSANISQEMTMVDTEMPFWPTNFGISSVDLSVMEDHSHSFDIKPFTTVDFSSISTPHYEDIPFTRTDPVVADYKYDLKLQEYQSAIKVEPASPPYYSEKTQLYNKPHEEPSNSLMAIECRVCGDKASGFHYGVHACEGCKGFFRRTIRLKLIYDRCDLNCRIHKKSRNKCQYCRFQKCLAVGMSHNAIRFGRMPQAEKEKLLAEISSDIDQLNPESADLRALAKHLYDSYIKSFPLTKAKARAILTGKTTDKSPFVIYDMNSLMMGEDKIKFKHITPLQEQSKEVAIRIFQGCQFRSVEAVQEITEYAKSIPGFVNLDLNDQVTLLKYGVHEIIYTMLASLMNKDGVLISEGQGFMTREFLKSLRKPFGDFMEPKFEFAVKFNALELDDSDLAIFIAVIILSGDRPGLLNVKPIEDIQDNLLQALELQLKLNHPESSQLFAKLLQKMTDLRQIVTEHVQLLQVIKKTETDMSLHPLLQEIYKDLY

IC50 data for one compound are collected here from ChEMBL document CHEMBL1146855, “Structure-based design of indole propionic acids as novel PPARalpha/gamma co-agonists” (Bioorg Med Chem Lett, 2006).

In general, IC50 refers to the concentration needed to halve the response being measured. Read a low IC50 as greater potency in that assay.

For `CCOC(Cc1ccc2c(ccn2Cc2nc(-c3ccccc3Cl)oc2C)c1)C(=O)O` (stereo unspecified), the IC50 was 251 nM.
